scFv variants of Ab-14 (heavy chain) against a SARS-CoV-2 spike peptide

The target is the same throughout: PDVDLGDISGINAS, from the HR2 region of SARS-CoV-2 spike.

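Phage display of a naive human antibody library on the peptide gave the parent. AAYL49 was designed without a model: most single CDR substitutions and a random sample of double and triple ones. Affinity was read by AlphaSeq, a pooled yeast mating assay with surface-displayed partners. The frequency of each diploid, read from paired DNA barcodes, reflects how well the two displayed proteins bind. The ratio of observed to expected reads was calibrated, replicate by replicate, on BCL2-family standards whose Kd was known from biolayer interferometry. There are three technical replicates.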

Ab-14 is the parent antibody, in scFv form: VH, then the linker GGGGSGGGGSGGGGS, then VL. The light chain is unchanged in all variants.
VH: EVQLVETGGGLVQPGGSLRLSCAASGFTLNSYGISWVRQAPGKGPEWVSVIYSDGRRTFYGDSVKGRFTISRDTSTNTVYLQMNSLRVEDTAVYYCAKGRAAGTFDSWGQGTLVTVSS
VL: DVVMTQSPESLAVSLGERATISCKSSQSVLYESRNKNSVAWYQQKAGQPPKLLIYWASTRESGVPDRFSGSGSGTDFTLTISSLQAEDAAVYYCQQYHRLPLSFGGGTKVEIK

Substitutions are numbered in sequence along the VH above, starting at 1 (not Kabat). Scale: log10 of Kd in nM, estimated from mating counts; low values are strong binders. Replicates are averaged; those with no signal do not enter the mean. "nd" means that the variant was in the library but no mating with the target was seen in that replicate; the authors take this as a sign of poor binding, and no number exists. For reference, the parent read 0.65 as the reference entry and 4.11 (one replicate of three) as a member of this library.

| changes | replicates, log10 nM | mean, log10 nM | control signals |
|---|---|---|---|
| T28G+N30L+V64L | nd nd nd | nd | 0 of 9 |
| D54E+Y60R+D62R | 2.86 nd nd | 2.86 | 1 of 9 (3.29) |
| V50Q+A101I | nd nd nd | nd | 2 of 9 (4.57) |
| L29I+D106T+S107G | nd nd nd | nd | 0 of 9 |
| V50M+D106A | nd 3.77 nd | 3.77 | 0 of 9 |
| I34M+Y52S | nd nd 3.60 | 3.60 | 2 of 9 (4.14) |
| G26E+Y60F+G103P | nd nd nd | nd | 1 of 9 (4.36) |
| F27Q+T28S+R57T | nd nd nd | nd | 1 of 9 (4.47) |
| G26T+D62H+A102R | nd nd nd | nd | 0 of 9 |
| N30A+V50T+S63K | nd nd nd | nd | 1 of 9 (4.19) |
| G26C+Y60T+K65A | nd nd nd | nd | 0 of 9 |
| N30Y+Y60V | nd nd nd | nd | 0 of 9 |
| Y52W+G55E+G61I | 3.91 nd 4.33 | 4.12 | 3 of 9 (4.78) |
| S31N+G33V+T58L | nd 3.73 nd | 3.73 | 4 of 9 (4.01) |
| R56I+G103T | 3.96 nd nd | 3.96 | 1 of 9 (4.96) |
| S35I+Y52H+K65A | 4.63 nd nd | 4.63 | 0 of 9 |
| T58S+T104K+D106R | 1.68 2.05 2.79 | 2.17 | 2 of 9 (3.24) |
| I34V+S53K+D54K | 3.75 3.67 5.01 | 4.14 | 1 of 9 (4.18) |
| S63Y+R100C+D106L | 4.70 3.13 3.92 | 3.91 | 2 of 9 (5.15) |
| F27S+R56K+A102C | nd nd 2.47 | 2.47 | 0 of 9 |
| G26T+R57Q+A101Q | nd nd 4.89 | 4.89 | 0 of 9 |
| S35G+S63C+S107V | nd nd nd | nd | 0 of 9 |
| F27N+V50C+D106V | nd 3.33 5.81 | 4.57 | 2 of 9 (3.65) |
| G33A+Y52H+S63V | nd nd nd | nd | 0 of 9 |
| I51R+D54Q+K65G | nd nd nd | nd | 1 of 9 (3.24) |
| S35W+I51Q | nd nd nd | nd | 0 of 9 |
| V50G+G61V+R100D | nd nd nd | nd | 1 of 9 (3.42) |
| L29A+G61M+T104H | nd nd 4.07 | 4.07 | 2 of 9 (4.01) |
| R57C+G61C+T104Y | nd 4.70 nd | 4.70 | 4 of 9 (4.33) |
| G33H+S53W+S63F | nd nd 6.08 | 6.08 | 2 of 9 (4.09) |
| S53N+R57S+D62I | nd nd nd | nd | 0 of 9 |
| R56D+V64R+G99V | nd nd nd | nd | 0 of 9 |
| R56L+Y60I+S63F | 4.75 3.55 5.07 | 4.46 | 7 of 9 (4.66) |
| T58C+R100D+A102Y | nd nd nd | nd | 0 of 9 |
| R57C+R100G+A101R | nd nd nd | nd | 4 of 9 (4.47) |
| I34W+R57M | nd nd nd | nd | 2 of 9 (2.86) |
| T28I+I34M+R100F | nd nd nd | nd | 1 of 9 (2.57) |
| G26K+G103C+S107F | 1.57 1.46 1.75 | 1.60 | 3 of 9 (4.27) |
| S31P+G55Y+T104S | nd nd 4.26 | 4.26 | 1 of 9 (4.31) |
| Y32N+S35M+G61T | 5.25 3.88 nd | 4.56 | 5 of 9 (4.32) |
| D54T | 3.11 nd 3.78 | 3.45 | 1 of 9 (5.98) |

Nonspecific signal, from three strains lacking the peptide, appeared in 15% of pairings of library AAYL49, centred on 4.06 (5% of these signals below 2.83); values are not corrected for it. The control count says in how many pairings with the empty strains this scFv gave a signal, with their mean in brackets.

Reference: Engelhart et al. 2022, doi:10.1038/s41597-022-01779-4. File: FLAb, binding data.